For this test, the target named is Diamine acetyltransferase 1 (Homo sapiens, UniProt P21673). Briefly: Inhibitory activity against human SSAT.

The chains behind the UniProt entries cited, without tags or fusion partners.
UniProt P21673, whole entry, looked up: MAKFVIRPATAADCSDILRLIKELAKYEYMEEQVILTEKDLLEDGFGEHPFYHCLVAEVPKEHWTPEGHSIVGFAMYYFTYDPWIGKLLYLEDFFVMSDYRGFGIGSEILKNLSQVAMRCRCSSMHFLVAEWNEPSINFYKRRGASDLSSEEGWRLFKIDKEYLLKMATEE

For orientation: Ki means the dissociation constant of the complex between target and ligand, obtained from inhibition or displacement. Low readings indicate a stronger hold on the target, high ones a looser hold on the target.

The structures appear in SMILES notation.

Take `CCNCCCNCCCNCCCOP(C)(=O)O`: the affinity, expressed as Ki, was 50 µM.

For the origin of these results see ChEMBL document CHEMBL1134460, “Terminally alkylated polyamine analogues as chemotherapeutic agents” (J Med Chem, 2001).
